# From US20180313858A1, “QUANTIFICATION OF DRUGS IN BIOLOGICAL SAMPLES” (Indivior UK Limited, priority 2015, published 2018)
# Test: Stability testing of analytes in human K2 EDTA plasma and sample extracts
# Settings: for Observed Concentration ± S.D.: n = 6
# [1] = bench top (6.2 h, ice-water bath), spiked 60.0 pg/mL, human K2 EDTA plasma
# [2] = bench top (6.2 h, ice-water bath), spiked 7500 pg/mL, human K2 EDTA plasma
# [3] = extract (74 h, 2-8° C.), spiked 60.0 pg/mL
# [4] = extract (74 h, 2-8° C.), spiked 7500 pg/mL
# [5] = freeze-thaw (4 cycles), spiked 60.0 pg/mL, human K2 EDTA plasma
# [6] = freeze-thaw (4 cycles), spiked 7500 pg/mL, human K2 EDTA plasma
# [7] = long-term (−20° C., 606 days), spiked 60.0 pg/mL, human K2 EDTA plasma
# [8] = long-term (−20° C., 606 days), spiked 7500 pg/mL, human K2 EDTA plasma
smiles,measurement,setting,value
CO[C@]12CC[C@@]3(C[C@@H]1[C@](C)(O)C(C)(C)C)[C@H]1Cc4ccc(O)c5c4[C@@]3(CCN1)[C@H]2O5,Bias (vs nominal concentration),[1],−2.5%
same,Observed Concentration ± S.D.,[1],58.5 ± 2.82 ng/mL
same,Bias (vs nominal concentration),[2],−5.2%
same,Observed Concentration ± S.D.,[2],7110 ± 146 ng/mL
same,Bias (vs nominal concentration),[3],−3.0%
same,Observed Concentration ± S.D.,[3],58.2 ± 4.35 ng/mL
same,Bias (vs nominal concentration),[4],−2.1%
same,Observed Concentration ± S.D.,[4],7339 ± 217 ng/mL
same,stability (in words),"extracted solution, refrigerated (2-8° C.) for at least 73.8 hours",stable
same,Bias (vs nominal concentration),[5],−0.8%
same,Observed Concentration ± S.D.,[5],59.5 ± 1.46 ng/mL
same,Bias (vs nominal concentration),[6],1.4%
same,Observed Concentration ± S.D.,[6],7608 ± 367 ng/mL
same,stability (in words),human plasma samples stored at −20° C. for at least 606 days,stable
same,Bias (vs nominal concentration),[7],−7.4%
same,Observed Concentration ± S.D.,[7],55.6 ± 1.34 ng/mL
same,Bias (vs nominal concentration),[8],−5.2%
same,Observed Concentration ± S.D.,[8],7110 ± 169 ng/mL
same,stability (in words),unextracted human plasma after four freeze/thaw cycles,stable
same,stability (in words),unextracted human plasma on the benchtop for 6.2 hours in an ice-water bath,stable
